Source: patent US5902814A, “Spiro-Azabicyclic Compounds useful in therapy” (dated 1999)

The chains behind the UniProt entries cited, without tags or fusion partners. Residues count along the entry.
UniProt P09483, 31-630 limits assumed: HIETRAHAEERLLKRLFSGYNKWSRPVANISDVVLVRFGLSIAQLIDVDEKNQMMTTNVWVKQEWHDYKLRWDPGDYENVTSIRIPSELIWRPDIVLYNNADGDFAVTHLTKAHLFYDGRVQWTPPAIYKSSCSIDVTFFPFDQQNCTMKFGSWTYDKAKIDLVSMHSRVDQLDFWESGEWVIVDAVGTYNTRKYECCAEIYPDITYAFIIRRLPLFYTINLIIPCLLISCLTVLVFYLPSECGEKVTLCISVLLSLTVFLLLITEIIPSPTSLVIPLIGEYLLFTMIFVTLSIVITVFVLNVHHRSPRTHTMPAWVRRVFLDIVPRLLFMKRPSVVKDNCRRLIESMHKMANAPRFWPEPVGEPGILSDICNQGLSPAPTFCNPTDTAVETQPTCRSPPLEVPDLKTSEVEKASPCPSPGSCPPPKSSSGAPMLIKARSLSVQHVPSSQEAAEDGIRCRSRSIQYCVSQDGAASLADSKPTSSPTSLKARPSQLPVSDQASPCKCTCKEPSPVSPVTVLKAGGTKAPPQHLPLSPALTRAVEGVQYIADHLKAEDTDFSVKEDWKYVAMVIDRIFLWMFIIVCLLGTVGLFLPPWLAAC
UniProt P12390, 25-500 limits assumed: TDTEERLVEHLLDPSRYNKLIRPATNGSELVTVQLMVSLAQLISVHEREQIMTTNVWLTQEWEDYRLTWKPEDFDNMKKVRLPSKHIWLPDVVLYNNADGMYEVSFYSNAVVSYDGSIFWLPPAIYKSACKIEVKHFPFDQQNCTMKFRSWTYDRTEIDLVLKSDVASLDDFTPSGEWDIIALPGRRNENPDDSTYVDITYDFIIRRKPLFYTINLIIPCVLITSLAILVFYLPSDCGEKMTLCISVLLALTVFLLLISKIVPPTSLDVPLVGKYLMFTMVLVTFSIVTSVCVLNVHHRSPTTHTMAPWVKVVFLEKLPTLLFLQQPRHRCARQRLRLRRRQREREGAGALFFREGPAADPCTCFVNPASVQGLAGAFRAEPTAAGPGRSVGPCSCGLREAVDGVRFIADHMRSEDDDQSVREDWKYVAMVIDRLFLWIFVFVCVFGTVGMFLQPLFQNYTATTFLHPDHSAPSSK

Molecular target: α4 nAChR subtype (Rattus norvegicus, UniProt P09483+P12390)
Experiment: Test B: [3H]-(-)-nicotine binding (affinity to the α4 nAChR subtype)
Details: ratio Ki Test B (α4) / Ki Test A (α7)

CN1CC2(CN3CCC2CC3)OC1=O (stereo not shown)
Ki values in Test B relative to those given in Test A (times greater): at least 1.6 times
